We go through 73 compounds from PubChem BioAssay AID624040 (The Scripps Research Institute Molecular Screening Center, 2012).

Chains of the proteins cited; added tags and fusions are not shown.
UniProt P08912, whole entry: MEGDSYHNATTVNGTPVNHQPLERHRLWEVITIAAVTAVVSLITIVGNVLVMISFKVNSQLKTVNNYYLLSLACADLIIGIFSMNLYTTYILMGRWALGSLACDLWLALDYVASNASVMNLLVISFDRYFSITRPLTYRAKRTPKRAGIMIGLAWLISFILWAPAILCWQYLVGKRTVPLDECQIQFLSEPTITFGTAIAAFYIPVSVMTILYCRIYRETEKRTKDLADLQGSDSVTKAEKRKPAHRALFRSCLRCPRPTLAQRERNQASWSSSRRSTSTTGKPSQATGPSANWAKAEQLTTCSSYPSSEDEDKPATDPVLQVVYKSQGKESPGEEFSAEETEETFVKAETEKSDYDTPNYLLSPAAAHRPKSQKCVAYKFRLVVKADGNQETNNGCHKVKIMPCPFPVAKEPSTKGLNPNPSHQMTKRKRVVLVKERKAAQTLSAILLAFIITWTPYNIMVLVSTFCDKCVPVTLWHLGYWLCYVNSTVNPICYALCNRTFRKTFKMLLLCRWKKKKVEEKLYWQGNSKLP

This is a selection; strong and weak results do not stand in their true shares. Some salts and complexes are drawn in separate pieces, as the source files them; their charges need not balance. The source made the active and inactive calls.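 How the source made its calls: active means inhibition above a per-plate cutoff, the mean of that plate's test compounds plus 3 SD (cut at about 27% in these data); inactive means the rest.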

The target of the test is Muscarinic acetylcholine receptor M5 (Homo sapiens) (UniProt P08912). Description: human M5 muscarinic receptor antagonists, primary screen, CHO cells, Fluo-8 calcium fluorescence (AID 624040).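 Further: 0% = acetylcholine EC80 with DMSO and 100% = DMSO without agonist.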 The following applies: CHO-hM5 cells, ACh EC80, at 3 µM, stronger effect = higher value.
In the case of `Cc1cc(-c2cccc3ccccc23)c(C)cn1.O=[N+]([O-])c1cc([N+](=O)[O-])c(O)c([N+](=O)[O-])c1`, the inhibition (as a rule, the change of the read-out against control, counted positive when it falls) is inactive: 5.15%. Then `O=[N+]([O-])c1cc([N+](=O)[O-])c(NCC2CCS(=O)(=O)C2)c([N+](=O)[O-])c1` (stereo not drawn), with inactive: -9.18%. Turning to `COc1ccc(NP(C)(=O)Oc2ccccc2OC)cc1` (stereo not drawn), the inhibition was inactive: -5.73%. Then `COc1ccc(OP(C)(=O)Nc2cccc(Br)c2)cc1` (stereo not drawn), with inactive: 2.94%; and `CN(C)C1(CNC(=O)c2ccc(Cl)c(S(N)(=O)=O)c2)CCCCC1`, with inactive: 8.94%; and `Cc1ccccc1NP(C)(=O)Nc1ccccc1C`, with inactive: 0.61%. Then `O=[N+]([O-])c1cc([N+](=O)[O-])c(C(F)(F)F)c([N+](=O)[O-])c1O`, with inactive: -5.03%. Then `CP(=O)(Nc1ccc2c(c1)OCCO2)Oc1ccccc1` (stereo not drawn), with inactive: -2.98%; and `CCOP(C)(=S)SCC(=O)NC(C)(CC)C(=O)O` (stereo not drawn), with inactive: -5.29%. For the compound `CP(=O)(Nc1ccc(SC(F)(F)F)cc1)Oc1ccc(F)cc1` (stereo not drawn), the inhibition was inactive: 18.1%. As for `COc1ccc2c(c1O)-c1c(O)c(OC)cc3c1[C@H](C2)[N+](C)(C)CC3.O=[N+]([O-])c1cc([N+](=O)[O-])c([O-])c([N+](=O)[O-])c1[O-]`, the figure is inactive: 14.6%. Then `O=C(OC1CN2CCC1CC2)c1ccc([N+](=O)[O-])cc1` (stereo not drawn), with inactive: 4.44%; and `CP(=O)(Nc1ccccc1F)Oc1ccccc1` (stereo not drawn), with inactive: -5.68%; and `CC(C)c1ccc(OP(C)(=O)Nc2ccc(SC(F)(F)F)cc2)cc1` (stereo not drawn), with inactive: 6.54%.

Turning to `O=[N+]([O-])c1cc([N+](=O)[O-])c(Nc2ccc(Cl)cc2)c([N+](=O)[O-])c1`, the inhibition was active: 28.4%. Regarding `CP(=O)(Nc1ccccc1)Oc1ccc(F)cc1` (stereo not drawn), the inhibition is inactive: -4.97%. Then `CCCCCOc1ccc(NP(C)(=O)Oc2ccc(Cl)cc2Cl)cc1` (stereo not drawn), with inactive: -12.8%. As for `O=[N+]([O-])c1cc([N+](=O)[O-])c(OC2CCCCC2O)c([N+](=O)[O-])c1` (stereo not drawn), the figure is inactive: -7.99%. Then `Cc1c([N+](=O)[O-])cc([N+](=O)[O-])c(Br)c1[N+](=O)[O-]`, with inactive: 1.5%; and `O=C(OC1CN2CCC1CC2)c1ccccc1` (stereo not drawn), with active: 70.4%; and `CCOC(=O)c1ccc(NP(C)(=O)Oc2ccc(F)cc2)cc1` (stereo not drawn), with inactive: -2.73%. Consider `COc1ccc(OP(C)(=O)Nc2ccc(SC(F)(F)F)cc2)cc1` (stereo not drawn), for which the inhibition is inactive: 4.18%.

With `CCN(CC)CCCNc1ccccc1[N+](=O)[O-].O=[N+]([O-])c1cc([N+](=O)[O-])c(O)c([N+](=O)[O-])c1`, the inhibition was inactive: -1.69%.

For `CC1=NCCc2c1[nH]c1ccccc21.O=[N+]([O-])c1cc([N+](=O)[O-])c(O)c([N+](=O)[O-])c1`, the inhibition was inactive: -2.94%. For `O=C(O)c1cccc(Nc2c([N+](=O)[O-])cc([N+](=O)[O-])cc2[N+](=O)[O-])c1`, the inhibition is inactive: -1.33%. Regarding `Cc1ccc(C)c(NP(C)(=O)Oc2ccccc2)c1` (stereo not drawn), the inhibition is inactive: -10.6%. As for `CP(=O)(Nc1cccc(Br)c1)Oc1ccccc1` (stereo not drawn), the figure is inactive: 2.75%; as for `Cc1cc(C)cc(OP(C)(=O)Nc2ccccn2)c1` (stereo not drawn), inactive: -7.64%; as for `CCOC(=O)c1ccc(NP(C)(=O)Oc2cc(C)cc(C)c2)cc1` (stereo not drawn), inactive: 1.48%. As for `Cc1cc(C)cc(OP(C)(=O)Nc2ccc(C)cc2C)c1` (stereo not drawn), the figure is inactive: 5.61%; as for `COc1ccccc1OP(C)(=O)Nc1cccc(Br)c1` (stereo not drawn), inactive: 4.86%; as for `COc1cc(C(=O)NCC2(N3CCOCC3)CCCCC2)cc(Cl)c1OC(C)C`, inactive: 8.22%. Then `Cc1nc2ccc3ccccc3c2s1.O=[N+]([O-])c1cc([N+](=O)[O-])c(O)c([N+](=O)[O-])c1`, with inactive: -5.18%. As to `O=[N+]([O-])c1cc([N+](=O)[O-])c(-c2cnn(-c3ccccc3)c2)c([N+](=O)[O-])c1`, the inhibition was inactive: 16.3%. As for `CN(Cc1cccnc1)C(=O)COc1ccc(Cl)c(Cl)c1.O=[N+]([O-])c1cc([N+](=O)[O-])c(O)c([N+](=O)[O-])c1`, the figure is inactive: 3.12%; as for `O=[N+]([O-])c1cc([N+](=O)[O-])c(-n2nnc3ccccc32)c([N+](=O)[O-])c1`, inactive: -3.53%. Take `COc1ccc(-c2ccccn2)cc1.O=[N+]([O-])c1cc([N+](=O)[O-])c(O)c([N+](=O)[O-])c1`: the inhibition is inactive: -3.03%.

On to `CP(=O)(Nc1ccc(SC(F)(F)F)cc1)Oc1ccccc1` (stereo not drawn), for which the inhibition is inactive: 15.3%. As for `CCCOc1ccc(NP(C)(=O)Oc2ccc(Cl)cc2)cc1` (stereo not drawn), the figure is inactive: -1.85%; as for `COc1ccccc1OP(C)(=O)Nc1c(C)cccc1C` (stereo not drawn), inactive: 1.39%. As for `CCOC(=O)C(CC)C1=NC(C)(C)Cc2ccccc21.O=[N+]([O-])c1cc([N+](=O)[O-])c(O)c([N+](=O)[O-])c1` (stereo not drawn), the figure is inactive: 6.39%; as for `O=[N+]([O-])c1cc([N+](=O)[O-])c(Nc2nnnn2CCO)c([N+](=O)[O-])c1`, inactive: 5.52%. Then `CN(C)C1(CNC(=O)c2ccc(S(C)(=O)=O)cc2)CCCCC1`, with inactive: -1.55%; and `CC1=C2N=C(C=C3N=C(C(C)=C4[N-][C@@](C)([C@@H]5N=C1[C@](C)(CCC(=O)NC[C@@H](C)OP(=O)([O-])O[C@H]1[C@@H](O)[C@@H](n6cnc7cc(C)c(C)cc76)O[C@@H]1CO)[C@H]5CC(N)=O)[C@@](C)(CC(N)=O)[C@@H]4CCC(N)=O)[C@@](C)(CC(N)=O)[C@@H]3CCC(N)=O)C(C)(C)[C@@H]2CCC(N)=O.[C-]#N.[Co+3]`, with inactive: 3.96%.

On to `CP(=O)(Nc1ccccc1Br)Oc1ccccc1` (stereo not drawn), for which the inhibition was inactive: -2.71%. As for `COc1ccccc1OP(C)(=O)Nc1ccccc1` (stereo not drawn), the figure is inactive: 3.82%.

`CP(=S)(Nn1cnnc1)Oc1ccccc1` (stereo not drawn): the inhibition was inactive: -10.7%.

Turning to `CCCCOc1ccc(C(=O)NCC2(N3CCCCC3)CCCCC2)cc1OC`, the inhibition is inactive: 14.9%. As for `CP(=O)(Nc1ccccn1)Oc1ccc(Cl)cc1` (stereo not drawn), the figure is inactive: 1.01%; as for `CCOC(=O)c1ccc(NP(C)(=O)Oc2ccc(OC)cc2)cc1` (stereo not drawn), inactive: -1.53%. Then `O=[N+]([O-])c1cc([N+](=O)[O-])c(O)c([N+](=O)[O-])c1.c1ccc(Oc2ccncc2)cc1`, with inactive: -4.87%; and `CCOP(C)(=S)SCC(=O)NC(C)C(=O)O` (stereo not drawn), with inactive: 1.21%; and `Cc1cc(C)cc(OP(C)(=O)Nc2ccc(SC(F)(F)F)cc2)c1` (stereo not drawn), with inactive: -3.99%. In the case of `CCc1ccc(OP(C)(=O)N2CCN(c3ccc([N+](=O)[O-])cc3)CC2)cc1` (stereo not drawn), the inhibition is inactive: 21.9%.

`O=C(COc1ccccc1)OC1CN2CCC1CC2` (stereo not drawn): the inhibition was active: 33.5%. Then `CP(=O)(NC(=O)Nc1ccccc1)Oc1ccccc1` (stereo not drawn), with inactive: 3.5%; and `CP(=O)(Oc1ccccc1)OC(c1ccccc1)C(F)(F)F` (stereo not drawn), with inactive: 12.1%; and `Cc1ccc(Nc2c([N+](=O)[O-])cc([N+](=O)[O-])cc2[N+](=O)[O-])cc1`, with inactive: 11.9%. For `Cc1cccc(C)c1OP(C)(=O)Nc1ccc(SC(F)(F)F)cc1` (stereo not drawn), the inhibition was inactive: -5.76%. Regarding `CP(=O)(Nc1ccc(SC(F)(F)F)cc1)Oc1ccc(Cl)cc1` (stereo not drawn), the inhibition is inactive: 0.82%. For `COc1ccccc1-c1ccccn1.O=[N+]([O-])c1cc([N+](=O)[O-])c(O)c([N+](=O)[O-])c1`, the inhibition was inactive: -9.53%. Then `O=C(OC1CN2CCC1CC2)C12CC3CC(CC(C3)C1)C2` (stereo not drawn), with active: 97.9%.

Turning to `Cc1cc(C)cc(OP(C)(N)=O)c1` (stereo not drawn), the inhibition is inactive: -6.85%. As for `COc1ccc(OP(C)(=O)Nc2cccc(F)c2)cc1` (stereo not drawn), the figure is inactive: 0.63%; as for `COc1ccccc1OP(C)(=O)Nc1cc(Cl)ccc1C` (stereo not drawn), inactive: -8.74%; as for `Cc1ccc(NP(C)(=O)Oc2ccccc2)c(C)c1` (stereo not drawn), inactive: -0.79%. As for `COc1ccccc1OP(C)(=O)Nc1ccc(C)cc1` (stereo not drawn), the figure is inactive: -1.17%. `CCOC(=O)c1ccc(NP(C)(=O)Oc2ccccc2)cc1` (stereo not drawn): the inhibition was inactive: -2.77%. As to `O=[N+]([O-])c1ccc2c(c1)C=Nc1ccccc1O2`, the inhibition is inactive: 5.13%. As for `Cc1cccc(C)c1OP(C)(N)=O` (stereo not drawn), the figure is inactive: -4.71%.

In the case of `CC(C)(C)c1ccc(OP(C)(=O)Nc2ccc(SC(F)(F)F)cc2)cc1` (stereo not drawn), the inhibition was inactive: 11.8%. As for `COc1cc(C(=O)NCC2(N3CCOCC3)CCCCC2)ccc1OCC(C)C`, the figure is inactive: -5.47%. As for `O=[N+]([O-])c1cc([N+](=O)[O-])c(Nc2cccnc2)c([N+](=O)[O-])c1`, the figure is inactive: 13.4%.
